Biological target: T1, PXR-LBD-L10-SRC (Homo sapiens, UniProt O75469)
T1 sequence (O75469 with tags, fused parts or gaps): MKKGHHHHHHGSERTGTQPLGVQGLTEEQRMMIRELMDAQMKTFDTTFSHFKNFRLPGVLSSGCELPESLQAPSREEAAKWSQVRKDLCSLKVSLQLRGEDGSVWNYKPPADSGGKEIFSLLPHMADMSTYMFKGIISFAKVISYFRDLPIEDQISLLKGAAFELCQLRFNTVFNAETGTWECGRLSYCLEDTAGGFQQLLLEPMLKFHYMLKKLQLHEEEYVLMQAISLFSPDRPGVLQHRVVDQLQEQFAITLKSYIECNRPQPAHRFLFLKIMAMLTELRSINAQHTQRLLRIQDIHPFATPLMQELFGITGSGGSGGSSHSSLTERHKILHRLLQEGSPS
Test: Temperature-dependent circular dichroism, stabilization of PXR-LBD-L10-SRC
Settings: 25 uM compound, vs PXR-LBD-L10-SRC apo enzyme
Method: The CD is a function of wavelength.
PXR-LBD-L10-SRC was expressed and purified essentially as set forth above. […] Stabilization of PXR-LBD-L10-SRC in the presence of various substances was measured by temperature-dependent circular dichroism. PXR-LBD-L10-SRC was assayed under the following conditions:
Buffer: 25 mM Hepes, pH 7.9, 150 mM NaCl, 5% glycerol, 10 mM BME,
heating ramp at 2° C./min
temperature range: 30-80° C.

The chains behind the UniProt entries cited, without tags or fusion partners. Where a name states a change or a piece, a line headed by the entry shows the natural chain unless it says otherwise.
UniProt O75469: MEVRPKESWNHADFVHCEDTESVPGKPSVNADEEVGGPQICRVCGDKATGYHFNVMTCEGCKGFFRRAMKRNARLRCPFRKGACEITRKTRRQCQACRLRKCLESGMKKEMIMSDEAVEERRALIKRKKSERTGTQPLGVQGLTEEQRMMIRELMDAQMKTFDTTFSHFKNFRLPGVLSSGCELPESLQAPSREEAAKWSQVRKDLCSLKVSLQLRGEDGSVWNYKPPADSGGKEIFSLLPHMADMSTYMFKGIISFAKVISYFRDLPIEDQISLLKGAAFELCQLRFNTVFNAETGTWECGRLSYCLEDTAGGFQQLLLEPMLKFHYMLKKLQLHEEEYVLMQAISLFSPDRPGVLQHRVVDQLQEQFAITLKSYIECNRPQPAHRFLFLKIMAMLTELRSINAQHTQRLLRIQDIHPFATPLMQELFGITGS

With Hyperforin the ΔTm was 6.8 C.
